Tested on: tubulin
Test: In vitro tubulin polymerization (turbidometry at 340 nm, BK004P kit)
Type: biochemical, porcine
Settings: 37 °C, 60 min, absorbance 340 nm; CA-4 5 μM, colchicine 5 μM, compounds 8 and 20 at 20 or 100 μM
Protocol: The kinetics of microtubule assembly was assessed by measuring absorbance at 340 nm over time.
The assembly of purified bovine tubulin was monitored using a BK004P kit, purchased from Cytoskeleton Inc. (Denver, CO, USA). The assay was performed according to the manufacturer’s instructions using the standard assay conditions. […] Light was scattered proportionally to the concentration of the polymerized microtubules in the assay. Then, the tubulin assembly was monitored by turbidometry at 340 nm in a MultiscanGo spectrophotometer (ThermoFisher Scientific, Carlsbad, CA, USA) for 60 min. The time dependence of the tubulin polymerization was presented in the form of graphs prepared in the GraphPad Prism 8.4.3.686 (Boston, MA, USA) software.

COc1cc2c(c(OC)c1OC)-c1ccc(OC)c(=O)cc1[C@@H](NC(C)=O)CC2 [colchicine, reference compound]
Effect on in vitro tubulin polymerization: inhibited tubulin polymerization

Source: paper PMC11124394, “Novel Combretastatin A-4 Analogs—Design, Synthesis, and Antiproliferative and Anti-Tubulin Activity” (Molecules, 2024)
